Only some compounds are listed: those with a hit (about 2.1% of all), similar ones and a draw of the others.
miR-122 sensor = miR-122 Renilla sensor signal increase in Huh7, primary screen, miR-122 inhibitor project, cell-based, single point, plate reader; Huh7 miR-122 Renilla luciferase sensor, 48 h; neutral wells = 0, positive control = 100; activation (reporter increase), % at 12.5 µM; hit rate 0.3% among 340,000; AID 602342, 2012;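 active means mean replicate activation score at least 90 and every replicate individually at or above 90; inconclusive means only one of the two criteria met; inactive means neither criterion met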;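 further: higher luciferase means less miR-122 activity so hits act as miR-122 inhibitors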
UUG fidelity = modulators of yeast start codon fidelity, primary screen, whole organism, S. cerevisiae, single point, plate reader | AID 602363, 2012 | S. cerevisiae UUG-firefly luciferase reporter, luminescence/redox ratio | activity score, % at 18.7 µM | hit rate 0.13% among 350,000;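 active = replicate mean at a twofold rise or more, about +100% in these data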;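 also: firefly luciferase made from a UUG start codon reports start codon fidelity; reporter light over untreated wells divided by growth signal over untreated wells; some hits fall short of that in this replicate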
MITF act = activators of MITF-driven TRPM1 promoter reporter, primary screen, cell-based, SK-MEL-5, luciferase, single point. activation, % at 12.5 µM. hit rate 0.75% among 300,000. SK-MEL-5 TRPM1-promoter luciferase, 24 h; % of positive control, neutral wells = 0;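 active means mean activation of at least 80% with every replicate also reaching 80%; inconclusive means mean reaches 80% but some replicate falls short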
Wnt act = Wnt/beta-catenin pathway activators, primary screen, cell-based, plate reader, single point. Wnt/beta-catenin reporter cell assay, activator. AID 743398, 2014. activation, % at 9.35 µM. hit rate 1.2% among 300,000; in the data active means activation above about 30%, passing the limit was not always enough; inconclusive means no clear call, values can overlap the other calls
PGC1a acetyl inh = inhibitors of PGC1a acetylation signal, primary screen, cell-based, U2OS, AlphaScreen, inhibitor mode; AlphaScreen anti-acetyl-lysine; with virally co-expressed GCN5 acetyltransferase; inhibition, % at 15.6 µM; hit rate 0.17% among 350,000; AID 651687, 2012;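 active means every replicate shows inhibition of at least 40%; inconclusive means mean inhibition at least 40% but some replicate below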
TRPM1 prom inh = inhibitors of MITF-dependent TRPM1 promoter reporter, primary screen, cell-based, SK-MEL-5, single point, luciferase | inhibition, % at 12.5 µM | AID 488899, 2010 | SK-MEL-5 TRPM1 promoter luciferase, 24 h | hit rate 0.83% among 330,000;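 active means mean inhibition across replicates of 60% or more, whatever share of single replicates reaches that level; inconclusive means some that reach 60%, reason not given; inactive means mean inhibition across replicates below 60%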
A number is an active result; 0 = inactive; ? = inconclusive; - = no result.

SMILES	miR-122 sensor	UUG fidelity	MITF act	Wnt act	PGC1a acetyl inh	TRPM1 prom inh
O=C(NCC[C@H]1CC[C@@H](NC(=O)c2cccnc2)[C@H](CO)O1)Nc1ccc(Cl)cc1	-	0	-	-	0	-
O=S(=O)(c1ccc2[nH]ccc2c1)N1CCCCCC1	0	0	0	0	68	0
COc1ccc(C(=O)Nc2ccc(C)cn2)c(OC)c1	0	0	0	-	0	75
COc1cccc(C(=O)NC(=O)Nc2cc(C)on2)c1	0	0	105	0	0	0
Cc1cc(NC(=O)Nc2ccc(C)c(C)c2)no1	-	-	0	32	-	0
COc1ccc(C(=O)Nc2cc(C)on2)c(OC)c1	0	0	115	0	0	0
CCC(=O)Nc1ccc2c(c1)C(=O)N(C)[C@@H]1CC[C@H](CC(=O)NCCc3ccccc3)O[C@@H]1CO2	0	0	-	-	0	-
C#CCN(C(=O)C1CCC(=O)N(CCc2cccc(F)c2)C1)C1CCCCC1 (stereo unspecified)	-	-	-	33	-	-
CN(C(=O)C1CCC(=O)N(Cc2cccc(F)c2)C1)C1CCCCC1 (stereo unspecified)	0	0	98	44	0	0
Cc1ccsc1CCNC(=O)C1CCC(=O)N(CCc2cccc(F)c2)C1 (stereo unspecified)	-	0	95	0	-	0
O=C(NCCc1cccs1)C1CCC(=O)N(CCc2cccc(F)c2)C1 (stereo unspecified)	0	0	0	0	0	0
CO[C@@H]1CN(C)C(=O)c2ccc(NC(=O)Nc3cc(F)ccc3F)cc2OC[C@H](C)N(C)C[C@@H]1C	-	-	-	-	0	-
CN(C)C(=O)C[C@@H]1C[C@H]2c3cc(NS(=O)(=O)c4ccccc4)ccc3O[C@H]2[C@H](CO)O1	0	0	-	-	0	-
COC(=O)c1ccc(/C=N/OCC(=O)NC2CCCCCCC2)cc1	163	0	0	-	0	0
COc1cc(/C=N/OCC(=O)NC2CCCCC2C)ccc1OCc1ccc(Cl)cc1 (stereo unspecified)	0	0	0	47	0	0
COc1cc(/C=N/N2CCOCC2)ccc1OCc1ccc(Cl)cc1	-	-	96	0	0	0
COC(=O)c1ccc(/C=N/OCC(=O)NC2CCCC(C)C2C)cc1 (stereo unspecified)	0	0	0	-	0	0
O=C(N[C@@H]1CC[C@@H](CC(=O)N2CCC(Cc3ccccc3)CC2)O[C@H]1CO)c1cnccn1	-	0	-	-	0	-
NC(=O)NC[C@@H]1CC[C@@H](Cc2ccc(-c3ccccc3)cc2)O1	0	0	118	-	0	0
Cc1cc(C)c2ccc(N)nc2c1O	0	0	0	-	0	74
COc1ccc(CNC(=O)C[C@@H]2CC[C@@H]3[C@H](COc4ccc(NC(=O)C5CC5)cc4C(=O)N3C)O2)cc1	0	0	-	-	0	-
O=C(N=C1N=C2C=CC(Br)=CN2Cc2ccccc21)c1ccc([N+](=O)[O-])cc1[N+](=O)[O-]	-	-	0	56	0	0
O=C(c1ccc([N+](=O)[O-])cc1[N+](=O)[O-])N1CCc2ccccc21	0	0	-	0	0	0
C[C@H](NC(=O)C[C@H]1CC[C@H]2[C@@H](COC[C@H](O)CN2C(=O)Nc2ccccc2)O1)c1ccccc1	0	0	-	-	0	-
COc1ccc2nc(NC(=O)C3CCN(S(=O)(=O)c4cccc5nsnc45)CC3)sc2c1	0	0	0	0	0	74
SMILES	miR-122 sensor	UUG fidelity	MITF act	Wnt act	PGC1a acetyl inh	TRPM1 prom inh
CC1CCc2c(sc(NC(=O)c3noc4c3CCCC4)c2C(N)=O)C1 (stereo unspecified)	-	-	141	0	0	0
C=C(CN(C)C)C(=O)c1cc(C)ccc1C	0	-	-	0	0	106
Cc1ccc(C)c(C(=O)NCCN(C)C)c1	0	0	-	-	0	0
O=S(=O)(NCCCN1CCOCC1)c1ccc(Cl)s1	-	-	0	0	0	0
CCCCCCNS(=O)(=O)c1ccc(Cl)s1	209	0	-	0	-	0
Cc1cccc(NC(=O)c2n[nH]c([N+](=O)[O-])c2Br)c1C	0	0	0	45	0	0
N#Cc1cc2c(nc1SCc1ccccc1)CCCC2=O	0	0	0	49	0	0
N#Cc1cc2c(nc1SCc1ccccc1)CCC2	-	-	-	-	-	0
O=C(NCc1ccco1)c1nc2c(nnn2Cc2ccccc2Cl)c(=O)[nH]1	0	0	0	0	-	72
Cc1ccc2nc(-c3ccc(NS(=O)(=O)c4c(C)n(C)c(=O)n(C)c4=O)cc3)sc2c1	-	-	?	48	-	0
CC(C)(C)OC(=O)NNC(=S)NC1CCCCC1	-	0	0	46	-	0
COc1ccc(CN(C)C[C@H]2OCCCC[C@@H](C)Oc3ccc(N(C)C)cc3C(=O)N([C@H](C)CO)C[C@H]2C)cc1	0	0	-	-	0	-
O=c1[nH]c(Cc2cccs2)nc2scc(-c3ccc(Cl)cc3)c12	0	0	94	0	0	0
COc1ccccc1C(=O)Nc1nc2ccccc2[nH]1	0	0	0	0	-	96
COc1cc(SC)ccc1C(=O)NCC1CCCCC1	-	0	97	0	-	0
COc1cc(SC)ccc1C(=O)Nc1nc2ccccc2[nH]1	0	0	0	0	-	97
COc1ccccc1C(=O)NCCC(=O)Nc1nc2ccccc2[nH]1	0	0	0	0	0	0
COc1cc(SC)ccc1C(=O)Nc1ccccc1	0	0	-	34	0	0
CO[C@H]1CN(C)C(=O)c2ccc(NC(C)=O)cc2OC[C@H](C)N(Cc2ccccc2C(=O)O)C[C@H]1C	0	0	-	-	0	-
COc1ccc(NC2=C(NC(C)=O)C(=O)c3ccccc3C2=O)cc1	0	0	0	0	0	0
CCCC(=O)NNC(=O)CCC(=O)Nc1ccccc1Cl	-	-	0	0	0	0
CCCC(=O)NC1=C(Cl)C(=O)c2ccccc2C1=O	-	-	0	0	-	101
CCC(=O)NC1=C(Nc2ccc(N)cc2)C(=O)c2ccccc2C1=O	-	0	0	34	0	0
O=C1C(Cl)=C(NCCN2CCCCC2)C(=O)c2ccccc21	-	-	0	-	-	99
O=C1C(Cl)=C(NCc2ccco2)C(=O)c2ccccc21	-	-	0	0	-	94
SMILES	miR-122 sensor	UUG fidelity	MITF act	Wnt act	PGC1a acetyl inh	TRPM1 prom inh
C[C@@H]1CN([C@H](C)CO)C(=O)c2cc(N(C)C)ccc2O[C@H]1CN(C)Cc1ccc(Cl)c(Cl)c1	0	0	-	-	0	-
CCNC1=C(Cl)C(=O)c2ccccc2C1=O	0	0	0	0	0	74
O=C1C=C(O)c2cccc(O)c2C1=O	0	0	0	0	0	0
O=C1C=C(c2c(O)ccc3ccccc23)c2ccccc2C1=O	0	-	0	0	54	?
CC(=O)c1ccc(/C=C/c2nc3ccccc3n2C)o1	0	0	-	35	0	-
Cn1c(/C=C/c2ccccc2)nc2ccccc21	-	-	0	0	-	0
COc1cc(O)c2c(=O)c(-c3ccc(O[C@@H]4O[C@H](CO)[C@@H](O)[C@H](O)[C@H]4O)cc3)coc2c1	0	0	0	36	0	0

Bioassay records from PubChem BioAssay.
